The results in this text go back to US9796704B2, “Substituted quinazolines as receptor-type kinase inhibitors” (Symphony Evolution, Inc., priority 2002, dated 2017).

Chains of the proteins cited; added tags and fusions are not shown. Residues count along the entry.
UniProt P54760, 605-890: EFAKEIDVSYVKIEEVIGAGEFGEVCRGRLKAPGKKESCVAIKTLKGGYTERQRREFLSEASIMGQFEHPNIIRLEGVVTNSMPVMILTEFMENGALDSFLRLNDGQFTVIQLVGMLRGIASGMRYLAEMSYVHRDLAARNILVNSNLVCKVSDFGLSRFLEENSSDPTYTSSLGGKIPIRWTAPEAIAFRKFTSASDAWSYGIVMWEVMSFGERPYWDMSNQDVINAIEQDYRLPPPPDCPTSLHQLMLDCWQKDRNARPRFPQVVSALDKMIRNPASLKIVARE
UniProt P29317, 598-890: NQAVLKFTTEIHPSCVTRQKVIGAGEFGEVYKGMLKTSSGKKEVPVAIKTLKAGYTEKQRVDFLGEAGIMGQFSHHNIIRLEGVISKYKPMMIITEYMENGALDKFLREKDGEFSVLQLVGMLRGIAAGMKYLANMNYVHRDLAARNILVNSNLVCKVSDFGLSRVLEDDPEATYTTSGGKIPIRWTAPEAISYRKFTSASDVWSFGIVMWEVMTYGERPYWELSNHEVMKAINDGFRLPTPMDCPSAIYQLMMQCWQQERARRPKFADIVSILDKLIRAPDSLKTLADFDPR

One assay has as its target EphB4 (Homo sapiens (Human), UniProt P54760). Briefly: EphB4 kinase inhibition, 33P phosphoryl transfer assay (radiometric). It is filed as biochemical. As for the experimental part: Phosphorylated substrate products are quantified by scintillation spectrometry.
Kinase activity and compound inhibition are investigated using one or more of the three assay formats described below. The ATP concentrations are selected near its Michaelis-Menten constant (KM) for each individual kinase. Dose-response experiments are performed at ten different inhibitor concentrations in a 384-well plate format. […] These parameters are obtained by nonlinear regression algorithm built into ActivityBase software (available from ID Business Solutions Ltd., of Guildford, Surrey, UK). ^33P Phosphoryl Transfer Assay (Radiometric)
Greiner 384-well white clear bottom high binding plates (available from Greiner Bio-One, Inc., of Longwood, Fla.) are coated with 2 μg/well of protein or peptide substrate in a 50 μL volume overnight at ambient temperature. […] The coating solution is aspirated and the plates are washed once with 50 μL of assay buffer and padded dry. Subsequently compounds and enzymes are mixed with γ ^33P-ATP (3.3 μCi/nmol) in a total volume of 20 uL in suitable assay buffers (see Table 2). For example the final EphB4 reaction solution contains 20 mM TrisHCl, pH 7.5, 10 mM MgCl2, 0.01% Triton X-100, 0.1 mM NaVO3, 5 nM EphB4 enzyme and 5 μM ATP. […] The plates are subsequently washed 6-12 times with PBST or TBS buffer.

The next assay deals with EphA2 (Homo sapiens (Human), UniProt P29317). The experiment in a line: EphA2 kinase inhibition, luciferase-coupled chemiluminescent assay (LCCA). The note with it: read-out: EphA2 IC50.

One may read the IC50 as the concentration that gives 50% inhibition.

A value given as a limit tells only on which side of the number the result lay.

On to `COc1cc2c(Nc3ccc(Cl)c(Cl)c3)ncnc2cc1OCC1CNCCCO1` (stereo not shown) [Example 152, N-(3,4-dichlorophenyl)-6-(methyloxy)-7-[(1,4-oxazepan-2-ylmethyl)oxy]quinazolin-4-amine], for which the 50% inhibitory concentration (IC50) at EphB4 lay within 50 to 1000 nM. As for `COc1cc2c(Nc3ccc(Cl)c(Cl)c3)ncnc2cc1OCC1CNCCO1` (stereo not shown) [Example 144, N-(3,4-dichlorophenyl)-6-(methyloxy)-7-[(morpholin-2-ylmethyl)oxy]quinazolin-4-amine], the IC50 against EphB4 lay in the range of 50 to 1000 nM. As for `COc1cc2c(Nc3ccc(Br)c(Cl)c3)ncnc2cc1O[C@H]1CO[C@H]2[C@@H]1OC[C@H]2OC` [Example 78, 1,4:3,6-dianhydro-2-O-[4-[(4-bromo-3-chlorophenyl)amino]-6-(methyloxy)quinazolin-7-yl]-5-O-methyl-D-glucitol], the concentration for half-maximal inhibition (IC50) on EphA2 is less than 50 nM.

As to `COc1cc2c(Nc3ccc(Cl)c(Cl)c3F)ncnc2cc1OC[C@@H]1CN2CCCC[C@@H]2C(=O)N1` [Example 50, (3S,9aR)-3-({[4-[(3,4-dichloro-2-fluorophenyl)amino]-6-(methyloxy)quinazolin-7-yl]oxy}methyl)hexahydro-2H-pyrido[1,2-a]pyrazin-1(6H)-one], the IC50 on EphA2 lay within 1000 to 20000 nM.
